A value given as a limit tells only on which side of the number the result lay.

Sequences of proteins named here, by UniProt entry; tags and fusion partners are left off. A change or cut given only in a name is not applied to a line headed by its entry.
UniProt Q9NSE2: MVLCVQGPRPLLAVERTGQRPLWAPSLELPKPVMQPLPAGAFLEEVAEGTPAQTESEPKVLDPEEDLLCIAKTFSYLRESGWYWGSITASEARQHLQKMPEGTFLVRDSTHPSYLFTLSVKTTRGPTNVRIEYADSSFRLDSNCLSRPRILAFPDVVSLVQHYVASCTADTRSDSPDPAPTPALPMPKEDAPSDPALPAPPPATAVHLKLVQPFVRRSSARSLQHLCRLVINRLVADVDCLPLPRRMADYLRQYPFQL

Consider one substance from patent US20230192857A1.

Assay [1] addresses JAK2.
Assay [2] concerns the target TYK2.

As for “CIS (from UniProt Q9NSE2 66-258; Q15370 1-118; Q15369 17-112)”, the IC50 (in general, the concentration that gives 50% inhibition) was 2400 nM in assay [1] and greater than 20000 nM in assay [2].
